AlphaSeq binding of Ab-91 heavy chain variants to a spike HR2 peptide

Data: MIT Lincoln Laboratory AlphaSeq set, Engelhart et al. 2022, doi:10.1038/s41597-022-01779-4, as distributed in FLAb.

All variants were tested on one target, the spike HR2 peptide PDVDLGDISGINAS (SARS-CoV-2).

Ab-91 is the parent antibody, in scFv form: VL, then a 15-residue (Gly4Ser)3 linker, then VH. The light chain is unchanged in all variants.
VL: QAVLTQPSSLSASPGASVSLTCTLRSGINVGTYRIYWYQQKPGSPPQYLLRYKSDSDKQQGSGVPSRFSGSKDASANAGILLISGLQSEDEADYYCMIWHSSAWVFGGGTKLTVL
VH: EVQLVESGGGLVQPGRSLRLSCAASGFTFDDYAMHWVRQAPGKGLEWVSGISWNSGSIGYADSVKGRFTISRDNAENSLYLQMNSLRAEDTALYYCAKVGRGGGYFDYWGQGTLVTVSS

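The library (AAYL51) carries one to three amino acid substitutions per variant, with no insertions or deletions. The scFvs were displayed on barcoded MATa yeast, the peptide on MATalpha yeast. Binding brings cells together so that they mate, and sequencing counts the barcode pairs among the diploids. Read counts were normalised to the haploid input and turned into Kd by a linear fit to BCL2-family pairs of known affinity, for each replicate. The assay was run in three technical replicates.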

Changes read parent residue, position, new residue, counted from the first residue of the VH shown. Every variant below is changed at M34 of the VH (sequential numbering). The Kd shown is the geometric mean over detected replicates; a lower Kd is a better binder. A pair that was not seen in any replicate is written "no signal"; this usually means weak binding, but a binder can also be missed. Entries are sorted by rising average, undetected variants last. Empty control strains, which show no peptide, gave a signal in 21% of pairings with library AAYL51; the median was 34 µM and 95% of these signals were weaker than 1.8 µM. No background was subtracted.

changes	apparent Kd	detected
Y32S M34F W53P	36 nM	1 of 3
M34F W53R K65M	290 nM	2 of 3
T28K M34W	420 nM	3 of 3
M34F V64T	1.7 µM	1 of 3
F27E M34D R101F	3.0 µM	1 of 3
M34R W53L Y60Q	4.5 µM	1 of 3
M34I S52Y I58E	5.7 µM	1 of 3
F29Y M34F D107S	8.0 µM	1 of 3
F27K M34D D62S	8.8 µM	1 of 3
M34F V99Y D107N	9.1 µM	2 of 3
F29Q M34Q S52Q	11 µM	1 of 3
F27M M34Q G102D	12 µM	1 of 3
G26R M34Y D107V	17 µM	2 of 3
M34Q D62G	19 µM	1 of 3
M34I S63R F106M	23 µM	1 of 3
M34E A61N R101V	26 µM	2 of 3
F29D M34L S57E	27 µM	2 of 3
F29H M34I	31 µM	3 of 3
M34K Y60C	32 µM	2 of 3
M34F H35R G103V	34 µM	2 of 3
M34G S52F G56T	38 µM	1 of 3
M34T Y60N K65C	54 µM	1 of 3
M34H S52D G56V	55 µM	3 of 3
M34Q S52A I58R	58 µM	3 of 3
M34L N54I	60 µM	1 of 3
M34L G103I	61 µM	3 of 3
D30A M34I S63C	64 µM	1 of 3
Y32C M34I I58F	71 µM	3 of 3
Y32W M34E I51Q	74 µM	1 of 3
F27N D30G M34A	80 µM	3 of 3
F27T M34L G100A	91 µM	1 of 3
F27I M34Y Y60W	99 µM	2 of 3
M34T I51F Y108K	120 µM	2 of 3
M34Y	210 µM	2 of 3
M34V G50R S63V	260 µM	1 of 3
D31F Y32P M34Q	270 µM	1 of 3
F29V M34V I58M	280 µM	1 of 3
G26A M34G Y105F	440 µM	2 of 3
A33I M34F G100T	540 µM	1 of 3
G26V M34E W53N	560 µM	1 of 3
F29R M34S Y60D	620 µM	2 of 3
M34G N54F R101D	no signal	0 of 3
M34H	no signal	0 of 3
M34F G50V S63R	no signal	0 of 3
M34T S55E S63T	no signal	0 of 3
M34N G50Y I51Y	no signal	0 of 3
M34Y K65M G100W	no signal	0 of 3
M34I G104M	no signal	0 of 3
D31H M34H D107N	no signal	0 of 3
M34W K65R V99M	no signal	0 of 3
M34H I51A F106E	no signal	0 of 3
M34H N54G G103T	no signal	0 of 3
M34K S57N K65C	no signal	0 of 3
M34D G56D Y105N	no signal	0 of 3
M34L Y108P	no signal	0 of 3
M34Y Y60L Y105N	no signal	0 of 3
Y32N A33W M34S	no signal	0 of 3
M34W S57K Y60P	no signal	0 of 3
Y32T M34D G100R	no signal	0 of 3
M34C K65W Y105P	no signal	0 of 3
M34Q G102I	no signal	0 of 3
D30S M34N F106A	no signal	0 of 3
D31F M34T D107R	no signal	0 of 3
M34E I51D	no signal	0 of 3
G26T M34H G104Y	no signal	0 of 3
M34T G50N Y60P	no signal	0 of 3
M34F I51K A61F	no signal	0 of 3
A33K M34I I51L	no signal	0 of 3
M34S V64G Y108E	no signal	0 of 3
D30Q M34Q K65Q	no signal	0 of 3
M34E Y60Q	no signal	0 of 3
T28S M34Y K65N	no signal	0 of 3
M34I Y60E R101K	no signal	0 of 3
M34V G50K I51K	no signal	0 of 3
M34W I51T S57A	no signal	0 of 3
M34S N54L S57N	no signal	0 of 3
Y32S M34L G59I	no signal	0 of 3
D31E M34R Y105E	no signal	0 of 3
A33F M34H I51M	no signal	0 of 3
M34N	no signal	0 of 3

Picked from the list: the 6 lowest averages where every replicate gave a value.

| changes | apparent Kd | detected |
|---|---|---|
| T28K M34W | 420 nM | 3 of 3 |
| F29H M34I | 31 µM | 3 of 3 |
| M34H S52D G56V | 55 µM | 3 of 3 |
| M34Q S52A I58R | 58 µM | 3 of 3 |
| M34L G103I | 61 µM | 3 of 3 |
| Y32C M34I I58F | 71 µM | 3 of 3 |